Laboratory results published in doi:10.1101/2025.05.28.656709.

Sequences of proteins named here, by UniProt entry; tags and fusion partners are left off. A change or cut given only in a name is not applied to a line headed by its entry. Residues count along the entry.
UniProt P25106: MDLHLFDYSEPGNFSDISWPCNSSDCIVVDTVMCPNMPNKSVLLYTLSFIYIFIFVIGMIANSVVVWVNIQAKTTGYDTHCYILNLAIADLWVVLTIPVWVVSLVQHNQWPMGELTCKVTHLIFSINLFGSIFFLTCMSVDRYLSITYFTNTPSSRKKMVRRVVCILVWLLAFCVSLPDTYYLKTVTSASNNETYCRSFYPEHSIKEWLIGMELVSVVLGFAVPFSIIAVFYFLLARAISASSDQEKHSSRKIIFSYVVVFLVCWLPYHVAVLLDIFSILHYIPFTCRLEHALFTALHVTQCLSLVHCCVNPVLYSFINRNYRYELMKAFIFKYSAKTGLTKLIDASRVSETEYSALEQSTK
UniProt P48061, 22-89: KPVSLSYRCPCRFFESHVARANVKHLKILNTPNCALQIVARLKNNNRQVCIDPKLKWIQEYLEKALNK

Target: CXCR7 (UniProt P25106)

With “SDF1α (from UniProt P48061-2 22-89) (ligand)” as the substance, how does the β-arrestin signaling (agonism EC50), PathHunter CHO-K1 CXCR7 β-arrestin cells read?
Its β-arrestin signaling (agonism EC50), PathHunter CHO-K1 CXCR7 β-arrestin cells is 22.5 nM.
